Patent US11674950B2, “Methods determining and treating cellular resistance to ADP-rtbosylating toxin” (priority 2017, dated 2023)

System: SL-401 resistant CAL1 and THP1 clones
Assay: SL-401 cytotoxicity after pulsatile non-cytotoxic azacitidine treatment
Details: 4-week pulsatile azacitidine 300 nM 2d on/2d off; 6 CAL1 and THP1 clones

Nc1ncn([C@@H]2O[C@H](CO)[C@@H](O)[C@H]2O)c(=O)n1 [azacitidine, 5-azacytidine]
reversal of SL-401 resistance: fully reversed SL-401 resistance
